Measured affinities in a library of Ab-14 light chain variants

Reference: Li et al. 2023, doi:10.1038/s41467-023-39022-2. File: FLAb, binding data.

Target peptide (SARS-CoV-2 spike, HR2 region): PDVDLGDISGINAS

Each scFv is VH, a (GGGGS)3 linker, VL, as in the parent Ab-14, and differs from it in the CDRs of the light chain only.
VH: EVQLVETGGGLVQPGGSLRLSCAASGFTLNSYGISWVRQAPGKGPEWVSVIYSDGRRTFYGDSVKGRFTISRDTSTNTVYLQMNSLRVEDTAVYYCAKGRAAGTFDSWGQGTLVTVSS
VL: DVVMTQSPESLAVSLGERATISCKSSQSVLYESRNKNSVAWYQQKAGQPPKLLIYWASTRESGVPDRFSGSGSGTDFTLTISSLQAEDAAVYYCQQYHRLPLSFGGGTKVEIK

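The parent was found by panning a naive human phage display library on the peptide. This is the validation round: designs drawn from the data on random variants, tested in the same kind of assay. Their group label is 14L_Ctrl (Ctrl: baseline library sampled from a position-specific scoring matrix, with some repeated check sequences). The assay is AlphaSeq: two haploid yeast populations carry antibody and antigen on their surface. The frequency of each diploid, read from paired DNA barcodes, reflects how well the two displayed proteins bind. A regression on co-assayed BCL2-family reference pairs converts the normalised counts of each replicate to an apparent Kd. Each pool was mated in six replicate cultures.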

Changes read parent residue, position, new residue, counted from the first residue of the VL shown.
The read-out is the apparent dissociation constant on a log10 scale (nM): the lower, the stronger.
The mean shown is taken over the replicates in which the pair was detected.
"nd" means that the variant was in the library but no mating with the target was seen in that replicate; the authors take this as a sign of poor binding, and no number exists.

For L30S/Y31E/R34S/T59S, the assay gave 1.27, nd, nd, nd, nd, 0.75 (mean 1.01; controls 0 of 18).
For S25V/V29G/V39G, the assay gave nd, nd, nd, nd, nd, nd (controls 0 of 18).
For L30S/R34S/W56N/E61P, the assay gave 0.29, 0.26, 0.24, 0.02, 0.14, 0.41 (mean 0.23; controls 0 of 18).
For Y31W/S33Q, the assay gave nd, nd, nd, nd, nd, 2.20 (controls 0 of 18).
For N37E/S103G, the assay gave nd, nd, nd, nd, nd, nd (controls 0 of 18).
For V29I/S62M/H98A, the assay gave nd, nd, nd, 3.20, 2.29, 2.54 (mean 2.67; controls 2 of 18).
For S33W/R34N/K36P, the assay gave nd, nd, nd, 1.89, nd, nd (controls 0 of 18).
For S33A, the assay gave nd, nd, nd, 2.39, 1.95, 1.92 (mean 2.09; controls 0 of 18).
For S25I/Q96S/H98I, the assay gave 2.41, 1.97, 1.42, 1.43, 1.42, 1.25 (mean 1.65; controls 1 of 18).
For S25H/V29W/E32P/W56Q, the assay gave 0.40, 0.10, 0.27, 0.03, 0.22, 0.29 (mean 0.22; controls 2 of 18).
For L30D/R34Q/A40N/Q96T, the assay gave nd, 1.18, nd, nd, nd, nd (controls 0 of 18).
For Y31H/N37Q/S38C/W56S, the assay gave 1.94, 2.61, nd, nd, nd, nd (mean 2.28; controls 0 of 18).
For V29P/Y31M/W56H, the assay gave 0.98, 0.70, 0.90, 0.69, 0.95, 0.70 (mean 0.82; controls 0 of 18).
For V29L/R34D, the assay gave 1.12, 1.19, 1.33, 1.30, 1.21, 1.50 (mean 1.27; controls 1 of 18).
For Y31E/K36S, the assay gave 1.56, 1.30, 0.67, 1.13, 1.21, 0.44 (mean 1.05; controls 0 of 18).
For Q27D/S28G/W56A, the assay gave 0.67, 1.03, 0.99, 0.86, 0.71, 1.24 (mean 0.92; controls 0 of 18).
For N35D, the assay gave 1.03, 1.91, 1.45, 1.64, 0.93, 1.63 (mean 1.43; controls 1 of 18).
For L30V/R34N/S58M, the assay gave nd, nd, 0.99, nd, nd, nd (controls 1 of 18).
For N37I/S62W/L102N, the assay gave nd, nd, nd, nd, nd, nd (controls 0 of 18).
For Y31N/R60P, the assay gave nd, nd, nd, nd, nd, nd (controls 2 of 18).
For S25F/S28E/R60H/H98F, the assay gave 2.48, 1.54, 1.26, 1.28, 1.50, 2.57 (mean 1.77; controls 0 of 18).
For Q27V/S28A/R34N/K36A/W56E, the assay gave 0.33, 1.41, 0.51, 0.88, 0.65, 0.88 (mean 0.78; controls 1 of 18).
For W56D/S103P, the assay gave -0.21, -0.08, 0.15, 0.04, 0.02, 0.21 (mean 0.02; controls 0 of 18).
For V29D/L30T/Y31P/V39I/T59Q, the assay gave 0.50, 0.67, 0.40, 0.64, 0.95, 0.74 (mean 0.65; controls 1 of 18).
For S33K/R34Q/N35H/K36M, the assay gave 0.90, 1.74, 1.85, nd, 2.43, 3.08 (mean 2.00; controls 2 of 18).
For S25V/R34F/W56E, the assay gave 2.20, 1.17, 1.46, 1.92, 2.62, nd (mean 1.87; controls 0 of 18).
For S25I/L30P/Y31A/P101L, the assay gave nd, 0.98, nd, 1.74, 1.33, 0.97 (mean 1.26; controls 0 of 18).
For V29H/E32V, the assay gave nd, nd, nd, 2.29, nd, 1.70 (mean 1.99; controls 0 of 18).
For V29F/E61A/S103K, the assay gave 1.40, 1.73, 2.71, nd, 3.56, 3.12 (mean 2.50; controls 1 of 18).
For S25C/Y31T/N35E/W56S, the assay gave 0.34, 0.14, 0.13, -0.06, -0.16, 0.36 (mean 0.12; controls 0 of 18).

The closing 4 entries, repeated:

{"changes": "S25I/L30P/Y31A/P101L", "log10 Kd, replicates": "nd, 0.98, nd, 1.74, 1.33, 0.97", "mean, log10 nM": "1.26", "control signals": "0/18"}
{"changes": "V29H/E32V", "log10 Kd, replicates": "nd, nd, nd, 2.29, nd, 1.70", "mean, log10 nM": "1.99", "control signals": "0/18"}
{"changes": "V29F/E61A/S103K", "log10 Kd, replicates": "1.40, 1.73, 2.71, nd, 3.56, 3.12", "mean, log10 nM": "2.50", "control signals": "1/18"}
{"changes": "S25C/Y31T/N35E/W56S", "log10 Kd, replicates": "0.34, 0.14, 0.13, -0.06, -0.16, 0.36", "mean, log10 nM": "0.12", "control signals": "0/18"}

The authors' rule: three or more of the six replicates give a measured affinity, fewer mean a poor binder.
The parent sequence was in this pool as ten entries: three were never detected, three once, and four in most replicates, with averages from 0.34 to 2.37.
The range of this assay differs from that of the first round, and the authors advise against merging the two.
Empty control strains, which show no peptide, gave a signal in 4% of pairings with all light chain designs; the median was 2.64 and 95% of these signals were weaker than 1.59. No background was subtracted. For each scFv, signals with the empty controls are counted beside the result.